Positions count from the first letter of the chain named.
B1: chimeric monoclonal antibody chimAB 64A (antibody, V domains shown)
VH: EVQLQQSGPELVKPGASMKISCKASGYSFTGYTMNWVKQSHGKNLEWIGLINPYNGGTIYNQKFKGKATLTVDKSSSTAYMELLSLTSEDSAVYYCARDYGFVLDYWGQGTTLTVSS
VL: QIVLTQSPSIMSVSPGEKVTITCSASSSVSYMHWFQQKPGTSPKLCIYSTSNLASGVPARFSGRGSGTSYSLTISRVAAEDAATYYCQQRSNYPPWTFGGGTKLEIKR
B2: chimeric monoclonal antibody chimAB 89A (antibody, V domains shown)
VH: B1 VH with G8R, M34L, T58S, I59S, G66D, F102Y, L104F
VL: B1 VL with S9A, V13A, S30N, Q37L, C46L, V77M, A78E, S91N
B3: chimeric monoclonal antibody chimAB 67A (antibody, V domains shown)
VH: B1 VH with T58I, Y94F, Y100F, F102Y
VL: B1 VL with S9A, V13A, C46W, R64S, N92T
B4: chimeric monoclonal antibody chimAB 61D (antibody, V domains shown)
VH: B1 VH with I59S, V72I, F102Y
VL: QIVLTQSPAIMSASPGEKVTITCSASSSVSYLHWFQQKPGTSPKLWVYSTSNLPSGVPARFGGSGSGTSYSLTISRMEAEDAATYYCQQRSIYPPWTFGGGTKLEIKR

Columns and labels:
[1] = target: T1, human CLDN6 (claudin 6), full length (human, UniProt P56747 1-220); assay: flow cytometry (median fluorescence), NEC8 testicular cancer cells endogenously expressing CLDN6
T1 construct: Expressed untagged from vector p3953 in HEK293T, HEK293 and CHO-K1 cells; endogenous in NEC8 and OV90 cells; In the Western blots it stood in denatured cell lysate; also called wild-type CLDN6
T1 sequence: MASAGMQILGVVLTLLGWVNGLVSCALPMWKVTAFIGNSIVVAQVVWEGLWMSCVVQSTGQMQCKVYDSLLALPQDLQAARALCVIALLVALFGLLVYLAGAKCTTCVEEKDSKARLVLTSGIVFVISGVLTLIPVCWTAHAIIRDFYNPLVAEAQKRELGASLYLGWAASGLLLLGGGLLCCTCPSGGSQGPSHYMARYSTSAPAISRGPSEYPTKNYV

[2] = target: T1, human CLDN6 (claudin 6), full length; assay: flow cytometry (median fluorescence), OV90 ovarian cancer cells endogenously expressing CLDN6
[3] = target: T1, human CLDN6 (claudin 6), full length; assay: flow cytometry saturation binding (median fluorescence), HEK293 cells stably expressing human CLDN6
[4] = target: T1, human CLDN6 (claudin 6), full length; assay: flow cytometry, NEC8 cells endogenously expressing CLDN6
[5] = target: T1, human CLDN6 (claudin 6), full length; assay: flow cytometry, OV90 cells endogenously expressing CLDN6
[6] = target: T1, human CLDN6 (claudin 6), full length; assay: flow cytometry saturation binding, HEK293 cells stably expressing human CLDN6

| Binder | EC50 (read off the curve) [1] [µg/mL] | EC50 (read off the curve) [2] [µg/mL] | EC50 (read off the curve) [3] [µg/mL] | EC50 [4] [µg/mL] | EC50 [5] [µg/mL] | EC50 [6] [µg/mL] |
| --- | --- | --- | --- | --- | --- | --- |
| B1 | ~0.6 | ~0.6 | ~0.5 | – | – | – |
| B2 | ~0.6 | ~0.6 | ~0.5 | – | – | – |
| B3 | – | – | – | 6.1 | 2.3 | 1 |
| B4 | – | – | – | 1.7 | 1.5 | 2.3 |
